Test results reported in patent US12616759B2, “Uses of labeled HSP90 inhibitors” (Sloan-Kettering Institute for Cancer Research, priority 2011, dated 2026).

Test system: K562 and Mia-PaCa-2 cells

SMILES | toxicity to K562 and Mia-PaCa-2 cells
Cc1ccc(NC(=O)c2ccc(CN3CCN(C)CC3)cc2)cc1Nc1nccc(-c2cccnc2)n1 [Gleevec] | toxic only to K562 cells
CC(C)n1nc(-c2cc3cc(O)ccc3[nH]2)c2c(N)ncnc21 [PP242] | toxic to both cells
